This assay has as its system isolated rat bladder.

The results in this text go back to patent US7265147B2, “3,6-disubstituted azabicyclo [3.1.0]hexane derivatives useful as muscarinic receptor antagonists” (Ranbaxy Laboratories Limited, priority 2002, dated 2007).

Structures are written as SMILES. Like-named read-outs stand apart in the source and are kept apart here.

As to `O=C(NCC#CCN1C[C@H]2C[C@H]2C1)C(O)(c1ccccc1)C1CCCCC1` (stereo partly drawn) [Compound No. 9, N-{4-[(1R, 5S)-3-azabicyclo[3.1.0]-hex-3-yl]but-2-ynyl}-2-hydroxy-2-cyclohexyl-2-phenylacetamide], the “Functional Assay pKB” value was found to be 6.82.

For the compound `O=C(NCC#CCN1C[C@H]2C[C@H]2C1)C(O)(c1ccccc1)C1CCCC1` (stereo partly drawn) [Compound No. 10, N-{4-[(1R, 5S)-3-azabicyclo[3.1.0]-hex-3-yl]but-2-ynyl}-2-hydroxy-2-cyclopentyl-2-phenylacetamide], the “Functional Assay pKB” value came to 7.01.

For `CCN(CC)CC#CCOC(=O)C(O)(c1ccccc1)C1CCCCC1` (stereo not shown) [Oxybutynin, reference compound], the “Functional Assay pKB” value (rat bladder strips, carbachol concentration response curve) is reported as 2.0.

Turning to `Cc1ccc(O)c([C@H](CCN(C(C)C)C(C)C)c2ccccc2)c1` [Tolterodine, reference compound], the “Functional Assay pKB” value is listed as 2.0.
